{"source": "patent US20050282258A1", "about": "(priority 2004, published 2005)", "system": "strain MC4100/pHYD915", "assay": "Surviving fraction of cells after MNNG mutagenesis", "conditions": "MNNG 50 micrograms/ml, 30 minutes at 37° C., 0.1 M citrate buffer pH 5.5", "data": [{"smiles": "CN(N=O)C(=N)N[N+](=O)[O-]", "values": [{"measurement": "surviving fraction of the cells after MNNG treatment", "value": "about 10%"}]}]}
